Data on 56 molecules can be found in published antibiotic growth screens (doi:10.1038/s41589-023-01349-8).

Some of the results follow.

The test system of the assay is A. baumannii ATCC 17978. Description: relative growth (fraction of control); higher = less inhibition. The conditions noted are these: 50 µM.
In turn, `Cc1ccc(CNc2ccccn2)o1` had a relative growth of 0.923.

Consider `CCCCc1cc(CCCC)n2nc(-c3ccccc3)cc2n1`, for which the relative growth came to 1.01.

In turn, `CN1CCN(C(=O)C[C@@H]2C=C[C@H](NC(=O)Cc3ccccn3)[C@H](CO)O2)CC1` returned a relative growth of 1.11.

In turn, `CCCNC(=O)N1C[C@H](O)COC[C@@H]2O[C@@H](CC(=O)NCc3ccncn3)CC[C@H]21` showed a relative growth of 0.931.

`COC(=O)[C@@H](N)Cc1ccc(-n2cc(CCC(=O)NO)nn2)cc1` had a relative growth of 0.523.

In turn, `CC(=O)O[C@H]1C[C@@H](OC(C)=O)C(C)(C)C2C[C@@H](O)[C@]3(C)C(CC[C@@]4(C)[C@H](c5ccoc5)OC(=O)[C@H]5O[C@]543)[C@]21C` (stereo partly specified) had a relative growth of 1.16.

In the case of `C=C[C@H]1CCC=C2C(=O)CCC[C@@H]21`, the relative growth was found to be 0.877.

In the case of `O=C(Nc1cc(C(F)(F)F)ccc1-n1cnc2ccccc21)c1ccc(S(=O)(=O)N2CCCC2)cc1`, the relative growth came to 0.976.

Molecule `COc1ccc(S(=O)(=O)N(C)C[C@@H]2Oc3ccc(NC(=O)Nc4cccc(C(F)(F)F)c4)cc3CC(=O)N([C@@H](C)CO)C[C@@H]2C)cc1Cl` showed a relative growth of 0.969.

For `NCc1cn(Cc2ccc(Cl)c(Cl)c2)cn1`, the relative growth was 0.92.

As to `CNC(=O)c1cccc(NC(=S)NC)c1`, the relative growth was found to be 1.03.

With `Cn1c2c(c(=S)[nH]c1=O)CCC2`, the relative growth was found to be 1.07.

Molecule `C[C@@H]1CC2C3CCC4=CC(=O)C=C[C@]4(C)[C@@]3(F)[C@@H](O)C[C@]2(C)[C@H]1C(=O)CO` (stereo partly specified) had a relative growth of 0.907.

Regarding `CN1C(=O)N[C@@H]2c3ccccc3O[C@@]1(COC(=O)NCCCCCC(=O)NO)[C@@H]2COC(=O)c1ccccc1`, the relative growth is 0.956.

Turning to `CN1C(=O)c2cc(NC(=O)C3CCOCC3)ccc2OC[C@@H]2O[C@H](CC(=O)NCc3ccc4c(c3)OCO4)CC[C@@H]21`, the relative growth came to 1.03.

For the molecule `Cc1ccc(S(=O)(=O)N2C[C@H](O)COC[C@@H]3O[C@H](CC(=O)NCCN4CCCCC4)CC[C@H]32)cc1`, the relative growth was determined as 0.917.

On to `COc1ccc(CCN2C(=O)[C@@]3(Cc4ccccc42)c2ccccc2C(=O)N(Cc2ccccc2)[C@H]3c2ccc(COC(=O)NCCCCCC(=O)NO)cc2)cc1`, for which the relative growth turned out to be 0.9.

Take `CCc1cc(C(N)=O)c(N)s1`: the relative growth amounted to 0.959.

Turning to `O=C(Nc1nn[nH]n1)C1CCCCC1`, the relative growth amounted to 0.99.

For the molecule `COc1ccc(S(=O)(=O)N[C@@H]2CC[C@@H](CCNC(=O)CN3CCOCC3)O[C@H]2CO)cc1`, the relative growth is 1.24.

With `Cc1ccccc1N1C(=O)c2cc(S(N)(=O)=O)c(Cl)cc2NC1C` (stereo unspecified), the relative growth is 1.13.

`O=C(C[C@H]1C=C[C@@H](NC(=O)C2CC2)[C@@H](CO)O1)NCCCN1CCOCC1` showed a relative growth of 1.19.

As to `O=C(O)CNC(=O)CN1C(=O)c2ccccc2C1=O`, the relative growth is 0.963.

Take `C[C@H](CCC(=O)O)[C@H]1CCC2C3C(CC[C@@]21C)[C@@]1(C)CC[C@@H](O)C[C@H]1C[C@H]3O` (stereo partly specified): the relative growth was determined as 1.02.

`CC(C)OC(=O)c1cn(Cc2c(F)cccc2F)c2sc(-c3ccc(NC(=O)C(C)C)cc3)c(CN(C)Cc3ccccc3)c2c1=O`: the relative growth was determined as 0.972.

Regarding `Cc1cc(-n2c(=O)[nH]c(=O)n(C)c2=O)ccc1Oc1ccc(SC(F)(F)F)cc1`, the relative growth stood at 1.23.

`O=C(O)C[C@@H]1C=C[C@H](NC(=O)c2ccncc2)[C@@H](CO)O1` displayed a relative growth of 0.911.

As to `O=C(C[C@@H]1C=C[C@@H](NC(=O)CN2CCOCC2)[C@@H](CO)O1)NCCc1ccccc1`, the relative growth was 0.907.

In turn, `Nc1nc(=O)c2nc(Br)n([C@H]3O[C@H]4CO[PH](O)(O)O[C@@H]4[C@@H]3O)c2[nH]1` had a relative growth of 0.944.

Turning to `CC1(C)C[C@@](CCN)(Cc2ccccc2)CCO1`, the relative growth worked out at 1.02.

The molecule `Cc1ccc(S(=O)(=O)N[C@H]2CC[C@H](CC(=O)N3CCC(Cc4ccccc4)CC3)O[C@@H]2CO)cc1` registered a relative growth of 0.849.

As to `Cn1c(=O)sn(-c2ccccc2)c1=O`, the relative growth was found to be 1.06.

`O=C(C[C@@H]1CC[C@@H]2[C@H](COC[C@H](O)CN2C(=O)c2ccccc2F)O1)N1CCN(c2ccccc2)CC1`: the relative growth was found to be 0.972.

The molecule `CC(=O)N(O)CCC[C@H]1NC(=O)CNC(=O)CNC(=O)CNC(=O)[C@@H](CCCN(O)C(C)=O)NC(=O)[C@@H](CCCN(O)C(C)=O)NC1=O` registered a relative growth of 1.12.

Regarding `COc1ccc(-c2coc3c(OC)c(OC)cc(O)c3c2=O)cc1`, the relative growth worked out at 0.908.

Molecule `COc1cccc(-c2cn(CC[C@H]3CC[C@@H](NS(=O)(=O)c4ccccc4Cl)[C@@H](CO)O3)nn2)c1` came in with a relative growth of 0.984.

Molecule `C[C@H]1[C@H]2CCC3C4CC=C5C[C@@H](N(C)C)CC[C@]5(C)C4CC[C@@]32CN1C` (stereo partly specified) gave a relative growth of 1.18.

Consider `O=C(C[C@@H]1CC[C@@H](NC(=O)Cc2ccccn2)[C@H](CO)O1)NCCCN1CCOCC1`, for which the relative growth stood at 1.04.

On to `CC(C)(C)NC[C@H](O)COc1ccccc1C1CCCC1.O=S(=O)(O)O`, for which the relative growth turned out to be 0.967.

`C[C@H](CO)N1C[C@H](C)[C@H](CN(C)C(=O)c2cnccn2)Oc2cc(Br)ccc2S1(=O)=O` yielded a relative growth of 1.01.

In turn, `COCC(=O)N[C@H]1C=C[C@H](CC(=O)N2CCCCC2)O[C@@H]1CO` returned a relative growth of 0.995.

With `CC[C@@H]1CN(C(=O)c2ccccn2)N1`, the relative growth is 1.01.

`COc1cccc(S(=O)(=O)Nc2ccc3c(c2)[C@H]2C[C@H](CC(=O)N4CCCCC4)O[C@H](CO)[C@H]2O3)c1`: the relative growth was 0.903.

Consider `CCC(CC)c1ccc(O)cc1`, for which the relative growth was 0.813.

As for `Cl.NC(Cc1ccc(Cl)cc1)C(=O)O` (racemic), the relative growth worked out at 1.24.

For the molecule `CN(C)/C=N/C(=S)N1CCOCC1`, the relative growth is 1.

`Cc1c(C)c(C)c(CN)c(C)c1C` yielded a relative growth of 1.01.

The molecule `COc1ccc2c(-c3ccc(Cl)cc3)c(C)oc2c1` came in with a relative growth of 1.08.

`CC(C)(C)c1c(C(C)(C)C)c1=O` registered a relative growth of 0.902.

The molecule `COc1cccc(NC(=O)N2C[C@@H](O)COC[C@H]3O[C@H](CC(=O)NCCCN4CCOCC4)CC[C@@H]32)c1` had a relative growth of 0.927.

Regarding `Cc1ccc(S(=O)(=O)NCC[C@H]2CC[C@@H](NS(=O)(=O)c3ccccc3Cl)[C@H](CO)O2)cc1`, the relative growth is 0.938.

`CC(=O)Nc1ccc(O)cc1` showed a relative growth of 1.01.

Consider `O=C(C[C@@H]1CC[C@H]2[C@@H](COC[C@@H](O)CN2C(=O)Nc2cccc(F)c2)O1)NCCCN1CCOCC1`, for which the relative growth was 0.975.

`CC(=O)Oc1c(C)c(C)c2c(c1C)CCC(C)(CCCC(C)CCCC(C)CCCC(C)C)O2` (stereo not drawn) [alpha-TOCHOPHERYL ACETATE [4mM]] had a relative growth of 1.37.

Molecule `COc1cccc(S(=O)(=O)Nc2ccc3c(c2)[C@H]2C[C@H](CC(=O)NCc4cccc(F)c4)O[C@H](CO)[C@H]2O3)c1` yielded a relative growth of 1.

Molecule `CCNC(=O)C[C@@H]1C=C[C@@H](NC(=O)C2CCOCC2)[C@@H](CO)O1` registered a relative growth of 1.06.
